Molecular target: recombinant PDK-1 (Homo sapiens (Human), UniProt O15530)
Experiment: PDK-1 kinase activity (PDK-1 kinase assay kit, cell-free)
Assay type: biochemical
Details: inhibiting recombinant PDK-1 kinase activity
Method: PDK-1 kinase activity This in vitro assay was performed using a PDK-1 kinase assay kit (Upstate, Lake Placid, N.Y.) according to the vendor's instructions. This cell-free assay is based on the ability of recombinant PDK-1, in the presence of DMSO vehicle or the test agent, to activate its downstream kinase serum- and glucocorticoid-regulated kinase (SGK.) which, in turn, phosphorylates the Akt/SGK-specific peptide substrate RPRAATF with [γ-^32]-ATP. […] The reported values represent the means of two independent determinations.

Amino acid sequences for entries named in this document (tags omitted). A change or cut given only in a name is not applied to a line headed by its entry.
UniProt O15530: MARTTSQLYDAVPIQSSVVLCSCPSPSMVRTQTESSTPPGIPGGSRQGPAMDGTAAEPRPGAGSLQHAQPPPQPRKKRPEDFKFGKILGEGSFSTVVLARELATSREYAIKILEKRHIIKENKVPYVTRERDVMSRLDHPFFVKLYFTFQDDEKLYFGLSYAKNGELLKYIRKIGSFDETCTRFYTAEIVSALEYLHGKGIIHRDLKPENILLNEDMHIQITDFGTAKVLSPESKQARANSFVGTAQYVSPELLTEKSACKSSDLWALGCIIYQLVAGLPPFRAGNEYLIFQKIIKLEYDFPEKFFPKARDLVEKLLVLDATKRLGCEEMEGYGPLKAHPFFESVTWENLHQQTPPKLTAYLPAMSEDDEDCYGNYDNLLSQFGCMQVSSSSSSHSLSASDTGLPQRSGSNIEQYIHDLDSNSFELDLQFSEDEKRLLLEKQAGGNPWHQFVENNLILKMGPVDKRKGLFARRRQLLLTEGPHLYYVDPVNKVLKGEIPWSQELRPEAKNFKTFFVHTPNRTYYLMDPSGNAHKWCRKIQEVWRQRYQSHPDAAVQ

Substance “4-[5-(4′-methyl[1,1′-biphenyl]4-yl)-3-(trifluoromethyl)-1H-1-yl]benzenesulfonamide [Compound 50]” has an IC50 of 15 µM.

From patent US8741944B2, “Anti-infective agents against intracellular pathogens” (priority 2007, dated 2014)
